{
  "source": "patent EP0381656A1",
  "about": "“Alcohol-soluble/water-insoluble oil-containing antifreeze” (FIRST BRANDS CORPORATION, priority 1989, dated 1990)",
  "experiment": "Contact angle of polypropylene glycol oil drop, all seven metals taken together",
  "type": "physicochemical",
  "details": "0.3 weight percent DSA, 33 volume percent solution, buffered pH of 7.8 to 8.3; shown in the Figure",
  "data": [
    {"substance": "2-dodecen-1-yl succinic anhydride [DSA]", "values": [
      {"measurement": "measured contact angles compared with Test Composition D (no surface modifier)", "value": "lowering of the measured contact angles"}
    ]}
  ]
}
